This note sets out measurements from patent publication US20240180855A1, “BIOACTIVE PRODUCTS” (priority 2021, published 2024).

The test system of this test is wheat. Kind of test: Wheat growth after one-time watering with products (Example 7). In kind it is in vivo. Set-up: Shoot length / Root length: unit not given here. The following applies: one-time watering 1000 μg/ml, 200 ml for 20 grains; day 5.

This is a selection: effects in other tests are not listed, and their absence says nothing.

With Ammonium nitrate, the “Emergence (%)” value amounted to 50%, the Root length turned out to be 4.2 and the Shoot length turned out to be 7.0.
